Values of other authors as cited in patent US20100113605A1 (priority 2007, published 2010).
Where two headings read alike, the source gives them in different places.

Sequences of proteins named here, by UniProt entry; tags and fusion partners are left off. Residues count along the entry.
UniProt Q9WTR4, 1-597: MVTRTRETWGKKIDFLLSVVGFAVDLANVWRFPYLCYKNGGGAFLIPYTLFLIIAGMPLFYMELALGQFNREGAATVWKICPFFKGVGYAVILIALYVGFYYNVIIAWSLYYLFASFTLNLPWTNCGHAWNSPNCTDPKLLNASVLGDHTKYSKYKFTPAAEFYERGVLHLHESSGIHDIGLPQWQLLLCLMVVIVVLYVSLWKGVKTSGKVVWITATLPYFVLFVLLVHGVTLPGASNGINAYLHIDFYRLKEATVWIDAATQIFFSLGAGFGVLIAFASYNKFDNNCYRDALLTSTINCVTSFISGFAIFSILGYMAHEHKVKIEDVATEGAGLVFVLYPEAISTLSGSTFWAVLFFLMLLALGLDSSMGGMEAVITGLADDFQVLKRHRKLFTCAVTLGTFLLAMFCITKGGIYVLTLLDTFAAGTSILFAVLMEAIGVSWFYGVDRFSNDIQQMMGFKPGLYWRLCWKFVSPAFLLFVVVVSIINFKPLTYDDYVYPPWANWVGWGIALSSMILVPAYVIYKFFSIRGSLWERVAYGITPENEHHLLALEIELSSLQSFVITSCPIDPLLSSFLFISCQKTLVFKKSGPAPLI
UniProt P31652, whole entry: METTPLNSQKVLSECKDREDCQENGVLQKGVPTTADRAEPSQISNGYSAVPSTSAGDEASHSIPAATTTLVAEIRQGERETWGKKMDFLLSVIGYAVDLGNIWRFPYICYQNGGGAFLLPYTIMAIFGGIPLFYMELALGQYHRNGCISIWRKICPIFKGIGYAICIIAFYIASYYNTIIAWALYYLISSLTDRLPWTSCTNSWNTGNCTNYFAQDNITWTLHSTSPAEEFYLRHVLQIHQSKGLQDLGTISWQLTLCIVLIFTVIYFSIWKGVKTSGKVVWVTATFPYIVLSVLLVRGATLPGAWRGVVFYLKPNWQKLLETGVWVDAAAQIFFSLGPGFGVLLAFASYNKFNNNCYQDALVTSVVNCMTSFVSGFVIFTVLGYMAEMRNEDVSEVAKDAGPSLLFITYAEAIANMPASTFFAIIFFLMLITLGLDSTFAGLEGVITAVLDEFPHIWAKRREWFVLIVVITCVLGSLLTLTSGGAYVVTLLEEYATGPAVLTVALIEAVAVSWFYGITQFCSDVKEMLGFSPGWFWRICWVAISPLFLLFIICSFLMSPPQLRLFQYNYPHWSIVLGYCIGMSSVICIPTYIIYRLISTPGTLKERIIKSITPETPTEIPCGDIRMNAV

Tests used:
NET = molecular target: T1, NET (Rattus norvegicus, UniProt Q9WTR4); settings: read-out: [^3H]Monoamine reuptake inhibition into rat brain synaptosomes, Noradrenaline (Ki)
T1 construct: from tissue; host or cells: rat brain synaptosomes

SERT = molecular target: T2, SERT (Rattus norvegicus, UniProt P31652); settings: read-out: [^3H]Monoamine reuptake inhibition into rat brain synaptosomes, 5-HT (Ki)
T2 construct: from tissue; host or cells: rat brain synaptosomes

In the case of `COC(=O)[C@H]1[C@@H](OC(=O)c2ccccc2)C[C@@H]2CC[C@H]1N2C` [Cocaine, cocaine], the Ki (NET; Hyttel (1982)) is given as 220 nM, the Ki (NET; Richelson & Pfenning (1984)) is given as 155 nM and the Ki (SERT; Hyttel (1982)) is given as 260 nM. The Ki (SERT; Richelson & Pfenning (1984)) was 180 nM.
